This is an account of results in US20200040358A1 (published 2020).

Experiment [1] addresses T1, NY-ESO-1 anchor optimized peptide peptide on HLA-A*02:01 (human).
T1 peptide: SLLMWITQV
The experiment in a line: multimer staining.

The target in experiment [2] is T1, NY-ESO-1 anchor optimized peptide …. The experiment can be described thus: activation reporter or marker.

B1: TCR18168 (TCR, V domains shown)
Valpha: QSVAQPEDQVNVAEGNPLTVKCTYSVSGNPYLFWYVQYPNRGLQFLLKYITGDNLVKGSYGFEAEFNKSQTSFHLKKPSALVSDSALYFCAVRELYSGAGSYQLTFGKGTKLSVIP
Vbeta: QKPSRDICQRGTSLTIQCQVDSQVTMMFWYRQQPGQSLTLIATANQGSEATYESGFVIDKFPISRPNLTFSTLTVSNMSPEDSSIYLCSVGGAGVTDTQYFGPGTRLTVL
Consider B1, for which the binding result in experiment [1] is listed as “recognises”.

B2: TCR0022 (TCR, V domains shown)
Valpha: QSVAQPEDQVNVAEGNPLTVKCTYSVSGNPYLFWYVQYPNRGLQFLLKYITGDNLVKGSYGFEAEFNKSQTSFHLKKPSALVSDSALYFCAVRDDLVGAGSYQLTFGKGTKLSVIP
Vbeta: QKPSRDICQRGTSLTIQCQVDSQVTMMFWYRQQPGQSLTLIATANQGSEATYESGFVIDKFPISRPNLTFSTLTVSNMSPEDSSIYLCSVGGAGVTDTQYFGPGTRLTVL
In the case of B2, the binding result in experiment [2] is “recognises”.

B3: TCR0018 (TCR, V domains shown)
Valpha: QSVAQPEDQVNVAEGNPLTVKCTYSVSGNPYLFWYVQYPNRGLQFLLKYITGDNLVKGSYGFEAEFNKSQTSFHLKKPSALVSDSALYFCAVRDLSDGAGSYQLTFGKGTKLSVIP
Vbeta: QKPSRDICQRGTSLTIQCQVDSQVTMMFWYRQQPGQSLTLIATANQGSEATYESGFVIDKFPISRPNLTFSTLTVSNMSPEDSSIYLCSVGGAGVTDTQYFGPGTRLTVL
With B3, in experiment [2], the binding result is “recognises”.
